Measurements taken from ChEMBL document CHEMBL6096665 (Eur J Med Chem, 2025).
Activity calls are given as the source filed them. The calls are words filed in the database; no cut-off is given here.

Columns and labels:
Assay type in all cases: functional, organism-based
Conditions in all cases: time 5.0 day
[1] = target: T1, Bile acid receptor (Mus musculus) (UniProt Q60641); experiment: In vivo activation of FXR in male ICR mouse assessed as upregulation of SHP mRNA expression in liver at 10 mg/kg, po administered via oral gavage for 5 days by RT-PCR analysis
T1 sequence (whole entry): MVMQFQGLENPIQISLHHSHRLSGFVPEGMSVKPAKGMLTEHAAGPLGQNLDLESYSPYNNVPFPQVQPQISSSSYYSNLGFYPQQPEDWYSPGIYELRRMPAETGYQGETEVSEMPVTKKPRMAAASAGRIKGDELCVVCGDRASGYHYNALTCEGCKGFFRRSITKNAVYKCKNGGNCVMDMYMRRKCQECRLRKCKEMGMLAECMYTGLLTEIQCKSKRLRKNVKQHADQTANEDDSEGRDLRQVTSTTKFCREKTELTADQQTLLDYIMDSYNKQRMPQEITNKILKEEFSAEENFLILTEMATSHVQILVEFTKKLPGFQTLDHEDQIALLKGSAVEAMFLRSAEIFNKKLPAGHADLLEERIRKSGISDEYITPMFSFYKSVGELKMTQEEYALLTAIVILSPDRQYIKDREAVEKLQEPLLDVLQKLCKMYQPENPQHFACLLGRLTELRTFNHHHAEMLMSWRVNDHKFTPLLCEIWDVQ

[2] = target: T1, Bile acid receptor (Mus musculus); experiment: In vivo activation of FXR in male ICR mouse assessed as upregulation of OSTbeta mRNA expression in liver at 10 mg/kg, po administered via oral gavage for 5 days by RT-PCR analysis
[3] = target: T1, Bile acid receptor (Mus musculus); experiment: In vivo activation of FXR in male ICR mouse assessed as upregulation of FXR mRNA expression in ileum at 10 mg/kg, po administered via oral gavage for 5 days by RT-PCR analysis
[4] = target: T1, Bile acid receptor (Mus musculus); experiment: In vivo activation of FXR in male ICR mouse assessed as upregulation of FXR mRNA expression in liver at 10 mg/kg, po administered via oral gavage for 5 days by RT-PCR analysis
[5] = target: T1, Bile acid receptor (Mus musculus); experiment: In vivo activation of FXR in male ICR mouse assessed as upregulation of BSEP mRNA expression in liver at 10 mg/kg, po administered via oral gavage for 5 days by RT-PCR analysis
[6] = target: T1, Bile acid receptor (Mus musculus); experiment: In vivo activation of FXR in male ICR mouse assessed as upregulation of SHP mRNA expression in ileum at 10 mg/kg, po administered via oral gavage for 5 days by RT-PCR analysis
[7] = target: T1, Bile acid receptor (Mus musculus); experiment: In vivo activation of FXR in male ICR mouse assessed as upregulation of FGF15 mRNA expression in ileum at 10 mg/kg, po administered via oral gavage for 5 days by RT-PCR analysis
[8] = target: T1, Bile acid receptor (Mus musculus); experiment: In vivo activation of FXR in male ICR mouse assessed as upregulation of OSTbeta mRNA expression in ileum at 10 mg/kg, po administered via oral gavage for 5 days by RT-PCR analysis

- Activity [1]: Active
- Activity [2]: Active
- Activity [3]: Active
- Activity [4]: Active
- Activity [6]: Active
- Activity [7]: Active
- Activity [8]: Active
Compound: CC(C)c1onc(-c2ccccc2OC(F)(F)F)c1CN1CCC(COc2ccc(C(=O)O)cc2)CC1
- Activity [5]: Active
